Test [1] deals with Mitogen-activated protein kinase 13 (Homo sapiens) (UniProt O15264). The following applies: Compound concentration 20.0 uM.
Test [2] addresses T1, Zinc finger and BTB domain-containing protein 21 (Homo sapiens) (UniProt Q9ULJ3).
T1 sequence (whole entry): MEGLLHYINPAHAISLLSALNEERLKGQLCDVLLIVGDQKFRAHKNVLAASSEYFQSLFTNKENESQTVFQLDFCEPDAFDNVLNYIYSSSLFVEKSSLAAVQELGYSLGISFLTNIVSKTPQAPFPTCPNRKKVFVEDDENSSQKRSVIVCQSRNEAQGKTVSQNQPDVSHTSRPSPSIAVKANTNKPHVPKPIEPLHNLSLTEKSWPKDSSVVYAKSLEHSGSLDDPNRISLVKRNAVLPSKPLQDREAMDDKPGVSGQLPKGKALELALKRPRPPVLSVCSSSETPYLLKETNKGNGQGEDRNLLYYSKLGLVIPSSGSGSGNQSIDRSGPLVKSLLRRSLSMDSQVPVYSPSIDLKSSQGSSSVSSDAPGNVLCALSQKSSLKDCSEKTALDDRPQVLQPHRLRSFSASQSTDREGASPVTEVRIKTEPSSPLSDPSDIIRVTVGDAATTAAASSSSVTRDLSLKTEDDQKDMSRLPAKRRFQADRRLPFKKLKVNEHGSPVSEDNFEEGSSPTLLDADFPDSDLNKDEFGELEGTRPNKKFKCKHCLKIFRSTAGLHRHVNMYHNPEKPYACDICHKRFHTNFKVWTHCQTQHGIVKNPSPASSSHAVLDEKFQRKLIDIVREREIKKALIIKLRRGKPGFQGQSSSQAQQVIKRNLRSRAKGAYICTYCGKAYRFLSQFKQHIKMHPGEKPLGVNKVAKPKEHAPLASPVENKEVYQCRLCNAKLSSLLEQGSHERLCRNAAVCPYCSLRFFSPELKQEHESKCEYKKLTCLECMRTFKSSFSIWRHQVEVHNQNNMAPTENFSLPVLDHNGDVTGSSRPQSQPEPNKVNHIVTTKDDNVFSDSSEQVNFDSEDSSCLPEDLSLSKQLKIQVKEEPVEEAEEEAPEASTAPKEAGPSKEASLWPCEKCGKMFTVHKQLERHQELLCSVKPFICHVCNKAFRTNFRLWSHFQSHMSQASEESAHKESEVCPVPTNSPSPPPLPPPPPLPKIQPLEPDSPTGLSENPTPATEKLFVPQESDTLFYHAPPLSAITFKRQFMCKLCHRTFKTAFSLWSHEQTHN
To be noted: SUD4.

By UniProt entry, the sequences of proteins in these tests, tags left out. Where a name states a change or a piece, a line headed by the entry shows the natural chain unless it says otherwise.
UniProt O15264: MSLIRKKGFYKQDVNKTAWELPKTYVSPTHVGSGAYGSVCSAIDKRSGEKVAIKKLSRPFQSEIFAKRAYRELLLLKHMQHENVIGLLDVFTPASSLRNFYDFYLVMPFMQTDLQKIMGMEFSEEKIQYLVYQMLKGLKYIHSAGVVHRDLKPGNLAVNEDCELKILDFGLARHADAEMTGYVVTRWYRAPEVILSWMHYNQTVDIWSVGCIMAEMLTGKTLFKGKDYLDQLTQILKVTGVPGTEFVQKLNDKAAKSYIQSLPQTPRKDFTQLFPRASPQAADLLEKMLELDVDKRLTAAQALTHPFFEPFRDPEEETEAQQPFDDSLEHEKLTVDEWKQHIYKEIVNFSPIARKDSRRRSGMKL

For test [3], the target named is T2, Zinc finger protein 131 (Homo sapiens) (UniProt P52739).
T2 sequence (whole entry): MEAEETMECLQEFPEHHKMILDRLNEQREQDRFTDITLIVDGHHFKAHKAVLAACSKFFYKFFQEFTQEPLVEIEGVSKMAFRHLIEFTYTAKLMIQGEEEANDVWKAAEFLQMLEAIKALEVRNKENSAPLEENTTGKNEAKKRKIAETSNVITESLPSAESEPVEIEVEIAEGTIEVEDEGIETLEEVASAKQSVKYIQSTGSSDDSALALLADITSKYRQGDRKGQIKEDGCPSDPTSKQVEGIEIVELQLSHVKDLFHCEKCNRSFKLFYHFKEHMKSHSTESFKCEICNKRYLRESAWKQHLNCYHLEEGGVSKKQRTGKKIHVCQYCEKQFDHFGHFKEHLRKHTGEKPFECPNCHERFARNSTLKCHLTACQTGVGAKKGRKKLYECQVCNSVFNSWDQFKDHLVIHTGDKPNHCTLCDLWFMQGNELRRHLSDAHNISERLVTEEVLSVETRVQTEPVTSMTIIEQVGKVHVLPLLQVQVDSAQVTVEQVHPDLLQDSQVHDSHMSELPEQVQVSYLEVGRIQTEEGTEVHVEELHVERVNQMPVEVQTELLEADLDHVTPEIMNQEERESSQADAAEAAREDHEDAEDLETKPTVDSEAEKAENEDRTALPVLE
The following applies: SUD4.

The target of test [4] is T3, Transcriptional regulator Kaiso (Homo sapiens) (UniProt Q86T24).
T3 sequence (whole entry): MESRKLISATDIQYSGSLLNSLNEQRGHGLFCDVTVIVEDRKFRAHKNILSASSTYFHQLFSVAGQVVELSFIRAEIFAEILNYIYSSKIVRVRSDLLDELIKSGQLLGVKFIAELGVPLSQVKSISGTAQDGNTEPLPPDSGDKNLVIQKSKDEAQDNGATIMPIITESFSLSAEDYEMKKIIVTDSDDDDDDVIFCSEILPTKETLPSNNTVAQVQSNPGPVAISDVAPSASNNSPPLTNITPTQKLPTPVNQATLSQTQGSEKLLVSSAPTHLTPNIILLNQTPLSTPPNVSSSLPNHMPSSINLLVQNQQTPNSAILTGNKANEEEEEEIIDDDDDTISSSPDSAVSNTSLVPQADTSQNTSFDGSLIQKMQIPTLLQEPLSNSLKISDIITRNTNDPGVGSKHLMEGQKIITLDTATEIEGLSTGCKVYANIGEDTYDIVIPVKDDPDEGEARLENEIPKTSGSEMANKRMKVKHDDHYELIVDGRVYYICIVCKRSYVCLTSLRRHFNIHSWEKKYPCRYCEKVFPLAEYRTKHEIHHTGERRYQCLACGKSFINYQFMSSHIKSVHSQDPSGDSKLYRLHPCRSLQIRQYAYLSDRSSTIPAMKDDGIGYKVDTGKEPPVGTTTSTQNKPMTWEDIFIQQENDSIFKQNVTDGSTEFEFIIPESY
The following applies: SUD4.

`C[C@@H]1CN(c2ncc(Cl)c(Nc3ccc4c(c3)n(CCC(C)(C)O)c(=O)n4C)n2)C[C@H](C)C1(F)F`: the Tm in test [1] is 49 °C. Moreover, the Normalized abundances for DMSO in test [2] turned out to be 433; in test [3] it was 1720; in test [4] it was 2180. The Normalized abundances for compound was found to be 436 in test [2], 1860 in test [3] and 2140 in test [4].

For the origin of these results see ChEMBL document CHEMBL5058646 (2022).
